## scFv variants of Ab-91 (heavy chain) against a SARS-CoV-2 spike peptide

Binding partner: SARS-CoV-2 spike HR2 peptide, sequence PDVDLGDISGINAS.

Parent: Ab-91, a human scFv built as VL, the linker GGGGSGGGGSGGGGS, VH. Only the CDRs of the heavy chain vary.
VL: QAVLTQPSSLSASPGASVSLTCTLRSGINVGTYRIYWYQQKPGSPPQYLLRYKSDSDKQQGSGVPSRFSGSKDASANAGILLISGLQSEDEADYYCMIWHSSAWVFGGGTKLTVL
VH: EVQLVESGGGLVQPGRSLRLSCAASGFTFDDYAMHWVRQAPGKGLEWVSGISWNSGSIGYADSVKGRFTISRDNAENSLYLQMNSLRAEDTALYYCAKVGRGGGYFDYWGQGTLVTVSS

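Phage display of a naive human antibody library on the peptide gave the parent. In library AAYL51, one, two or three CDR residues were substituted; doubles and triples were drawn at random. Affinity was read by AlphaSeq, a pooled yeast mating assay with surface-displayed partners. Pairs that bind mate more often; barcode pairs of the diploids are counted by sequencing. The ratio of observed to expected reads was calibrated, replicate by replicate, on BCL2-family standards whose Kd was known from biolayer interferometry. There are three technical replicates.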

Each variant is given by its three heavy chain CDRs, as the data file delimits them; those of the parent are GFTFDDYAMH, GISWNSGSIGYADSVK, VGRGGGYFDY. Kd is apparent (estimated from mating counts) and averaged on the log scale over replicates with a signal. Smaller is tighter. An entry "no signal" has no value in the source: the pair was not observed among the diploids in any replicate. This suggests poor binding but is not conclusive.

| Kd | replicates with signal | CDR-H1 | CDR-H2 | CDR-H3 |
|---|---|---|---|---|
| 29 µM | 1 of 3 | GFTFDDYAMV | GISWNSGSIGYADSVK | VGRGGGFFDY |
| 95 µM | 3 of 3 | GQTFDAYAMH | GISWNSGSIGYADSVK | VGRGGSYFDY |
| no signal | 0 of 3 | GFTFDDYWMH | GIMWGSGSIGYADSVK | VGRGGGYFDY |
| 430 µM | 2 of 3 | GFTFDDYAMH | DISKNSGSIGYADSVK | VGRGGGGFDY |
| no signal | 0 of 3 | GHTFDDYAMH | GISWNWGSIGYRDSVK | VGRGGGYFDY |
| 6.5 mM | 1 of 3 | GFTSDDYAMH | GISWNSRSIGYAQSVK | VGRGGGYFDY |
| no signal | 0 of 3 | GFTFCPYAMH | GISWNSGSIPYADSVK | VGRGGGYFDY |
| 31 µM | 1 of 3 | GFTFDDYAMH | GISWNSHSIGYANSVK | HGRGGGYFDY |
| 38 µM | 1 of 3 | GFTFDDYAMH | GISWHTGEIGYADSVK | VGRGGGYFDY |
| no signal | 0 of 3 | GFTFDDYAMA | GIMWNSGSIGYADSVK | VGRGGGYFDY |
| 110 µM | 3 of 3 | GFTFDDYAMH | GQSWNSGSIGYADSVK | DGRGGGEFDY |
| no signal | 0 of 3 | GFTFDDYAMH | GISWNSGSIGYYDSRK | VGRGGGYFDY |
| 13 nM | 3 of 3 | GRTFDDYAMH | GISPNSGSIGYADSVK | VGAGGGYFDY |
| 710 nM | 2 of 3 | GFTFDDYAMH | GISWNSGSIGYADSVA | VGRGGNYFDA |
| no signal | 0 of 3 | GFTSDDYSMH | GISWNSGSIGYADSVK | VGGGGGYFDY |
| no signal | 0 of 3 | GFQFDDVQMH | GISWNSGSIGYADSVK | VGRGGGYFDY |
| 24 nM | 3 of 3 | GFTFQDYAMH | GISWNSGLIGYADSVK | VNRGGGYFDY |
| no signal | 0 of 3 | GFTFDDDAMH | GIDWNSGSFGYADSVK | VGRGGGYFDY |
| 230 µM | 1 of 3 | GFTFDDYAMH | GIRWNSGSIGYADSVK | VGRGYPYFDY |
| 47 µM | 2 of 3 | GFTFDDYAMH | GSSWNSGSIGYGDSVK | VGRGGGYFDY |
| 100 µM | 1 of 3 | GHTFKDYAMH | GISWNSGSIGYADSQK | VGRGGGYFDY |
| no signal | 0 of 3 | QFTFDDYAMH | GISWNSVSIGYADSVK | VGRGAGYFDY |
| no signal | 0 of 3 | GFTFDDYAMH | GISWVAGSIGYADSVK | VGRGGIYFDY |
| 4.0 µM | 3 of 3 | GFTFDEYAMH | GISWNSGSNGYEDSVK | VGRGGGYFDY |
| no signal | 0 of 3 | GFTFDDYAMH | GISWNSGSDGYADHYK | VGRGGGYFDY |
| 160 µM | 1 of 3 | GFTFDDYADH | GISWNSGSIGYAASVH | VGRGGGYFDY |
| 340 nM | 1 of 3 | GFTFDDYAMT | MISWNSGSIGYADSVK | VGRGGGYFDD |
| 4.5 µM | 1 of 3 | GFEFDDYKMH | GISWNSSSIGYADSVK | VGRGGGYFDY |
| 130 nM | 3 of 3 | GFTFDDYAMH | GISWNSGSIGMADTVK | VGRGDGYFDY |
| no signal | 0 of 3 | GFTVDDYAMH | GISWNSGSIGYAISVK | VGRGLGYFDY |
| 8.1 µM | 2 of 3 | GFTFDDYAMH | GISWNSGSIGYADSVG | VGEGKGYFDY |
| no signal | 0 of 3 | GFTFDDYAMP | GISWLSGSIGYADSVK | SGRGGGYFDY |
| 530 nM | 1 of 3 | GFTFDDYAMH | GISVNSGSIQYADSVK | VGRGGGYFDY |
| 100 µM | 3 of 3 | GFTFDDYAMH | GIAWNKGSIGYADSVK | VGRGGGYKDY |
| no signal | 0 of 3 | GFTFDDYAME | GISWSSGSIGYADSVK | VGRGGGYVDY |
| 930 nM | 1 of 3 | GFTMDFYAMH | GIFWNSGSIGYADSVK | VGRGGGYFDY |
| 9.4 µM | 2 of 3 | GFDFDDYAMH | RISWNSGSIGYADSVK | VGRGGMYFDY |
| no signal | 0 of 3 | GFTFDDYAMH | GISDNLGSIKYADSVK | VGRGGGYFDY |
| 18 µM | 2 of 3 | GFTFPDYAMH | GISWNSGSIGYADSVK | VGIGVGYFDY |
| 960 µM | 2 of 3 | GVTFDDYIMH | GISWNSGSIGYADSVK | VGRGGGYFDS |
| 13 µM | 2 of 3 | GFTFDDYAMH | GISWNSGSIGYADFVK | VGIAGGYFDY |
| no signal | 0 of 3 | GFTFDDYAMH | GISWPSGSIGYAWSVK | VKRGGGYFDY |
| 220 µM | 3 of 3 | GFTFDDYAMH | GISMNVGSIGYADSRK | VGRGGGYFDY |
| 2.0 µM | 3 of 3 | GFTFDDYAMH | GISWNSGSIGYWDSVK | VGVGGGDFDY |
| no signal | 0 of 3 | GFTFDDYAMH | GIKWNSGSITYADSVK | VGRGGGYFTY |
| 530 µM | 3 of 3 | GFTFDDTAMH | GISWNSGSIGYADSVK | VDRGGGFFDY |
| 1.0 µM | 1 of 3 | GFTFDDYAMH | NISWNYGSIGYADSVK | VIRGGGYFDY |
| no signal | 0 of 3 | GFTLDTYAMH | GISWNSGSIGYADSKK | VGRGGGYFDY |

From the list, the first 3 with no signal in any replicate:

{"CDR-H1": "GFTFDDYWMH", "CDR-H2": "GIMWGSGSIGYADSVK", "CDR-H3": "VGRGGGYFDY", "Kd": "no signal", "replicates with signal": "0 of 3"}
{"CDR-H1": "GHTFDDYAMH", "CDR-H2": "GISWNWGSIGYRDSVK", "CDR-H3": "VGRGGGYFDY", "Kd": "no signal", "replicates with signal": "0 of 3"}
{"CDR-H1": "GFTFCPYAMH", "CDR-H2": "GISWNSGSIPYADSVK", "CDR-H3": "VGRGGGYFDY", "Kd": "no signal", "replicates with signal": "0 of 3"}

In this assay the parent's reference entry averaged 72 nM; its copy inside this library read 7.5 nM. As a blank, each scFv also met three strains without target: over library AAYL51, 21% of these pairings were detected, typically at 34 µM and seldom below 1.8 µM.

Reference: Engelhart et al. 2022, doi:10.1038/s41597-022-01779-4. File: FLAb, binding data.